Measured values taken from patent EP3262036B1, “THERAPEUTIC PYRIDAZINE COMPOUNDS AND USES THEREOF” (priority 2015, dated 2016).

Target: BRG1 (Homo sapiens, UniProt P51532)
Assay: biochemical
Type: binding
Details: His-BRG1 (A1448-S1575) 4 nM, biotinylated ligand (Example 248) 40 nM; read-out: BRG1 HTRF IC50

Compound | IC50
2-(6-amino-5-tetrahydropyran-2-yl-pyridazin-3-yl)phenol [Example 237] | 76.1 nM
Nc1nnc(-c2ccccc2O)cc1C(=O)N[C@@H]1C[C@H]1c1ccccc1 (relative stereo) [Example 235, 3-amino-6-(2-hydroxyphenyl)-N-(trans-2-phenylcyclopropyl)pyridazine-4-carboxamide] | 214 nM
CC1CN(c2cc(-c3ccccc3O)nnc2N)CCN1C(=O)c1ccncn1 (single isomer, unassigned) [Example 153, (4-(3-amino-6-(2-hydroxyphenyl)pyridazin-4-yl)-2-methylpiperazin-1-yl)(pyrimidin-4-yl)methanone] | 202 nM
CC1CN(c2cc(-c3ccccc3O)nnc2N)CCN1C(=O)c1ccncn1 (single isomer, unassigned) [Example 154, (4-(3-amino-6-(2-hydroxyphenyl)pyridazin-4-yl)-2-methylpiperazin-1-yl)(pyrimidin-4-yl)methanone] | 49.6 nM
C[C@H]1CC[C@H](c2cc(-c3ccccc3O)nnc2N)CC1 (single isomer, unassigned) [Example 225, 2-(6-amino-5-((1,4-trans)-4-methylcyclohexyl)pyridazin-3-yl)phenol] | 19 nM
C[C@H]1CC[C@@H](c2cc(-c3ccccc3O)nnc2N)CC1 (single isomer, unassigned) [Example 226] | 20.9 nM
Nc1nnc(-c2ccccc2O)cc1[C@H]1CCCCO1 (single isomer, unassigned) [Example 240] | 64.9 nM
Nc1nnc(-c2ccccc2O)cc1[C@@H]1CCCCO1 (single isomer, unassigned) [Example 241] | 119 nM
C[C@H]1CN(c2cc(-c3ccccc3O)nnc2N)CCN1c1ccccc1 [Example 82, 2-(6-Amino-5-(3-methyl-4-phenylpiperazin-1-yl)pyridazin-3-yl)phenol] | 68.4 nM
C[C@@H]1CN(c2cc(-c3ccccc3O)nnc2N)CCN1c1ccccc1 [Example 83, 2-(6-Amino-5-(3-methyl-4-phenylpiperazin-1-yl)pyridazin-3-yl)phenol] | 27.6 nM
Nc1nnc(-c2ccccc2O)cc1N1CC[C@]2(O)CCCC[C@@H]2C1 [Example 85, (trans-4a,8a)-2-(3-amino-6-(2-hydroxyphenyl)pyridazin-4-yl)decahydroisoquinolin-4a-ol] | 11 nM
NC(=O)c1ccc(N2C3CCC2CN(c2cc(-c4ccccc4O)nnc2N)C3)cn1 [Example 89, 5-(3-(3-amino-6-(2-hydroxyphenyl)pyridazin-4-yl)-3,8-diazabicyclo[3.2.1]octan-8-yl)picolinamide] | 51.7 nM
Cn1ccc(CN2CCN(c3cc(-c4ccccc4O)nnc3N)CC2)n1 [Example 100, 2-[6-amino-5-[4-[(1-methylpyrazol-3-yl)methyl]piperazin-1-yl]pyridazin-3-yl]phenol] | 38 nM
C[C@H]1CN(c2cc(-c3ccccc3O)nnc2N)C[C@H](C)N1S(C)(=O)=O [Example 113, 2-(6-amino-5-((3S,5S)-3,5-dimethyl-4-(methylsulfonyl)piperazin-1-yl)pyridazin-3-yl)phenol] | 263 nM
C[C@@H]1CN(c2cc(-c3ccccc3O)nnc2N)C[C@@H](C)N1S(C)(=O)=O [Example 114, 2-(6-amino-5-((3R,5R)-3,5-dimethyl-4-(methylsulfonyl)piperazin-1-yl)pyridazin-3-yl)phenol] | 51.5 nM
Nc1nnc(-c2ccccc2O)cc1[C@@H](O)[C@H](O)Cc1ccccc1 [Example 201] | 312 nM
